Test results from patent US6368788B1 (priority 1987, dated 2002).
“Also recorded” adds a separate entry of the source.

Key:
[1] = tested on: Human Peripheral Blood Lymphocytes; test: Analysis of possible chromosomal damage (mutagenicity), 24 hrs incubation in vitro; format: cell-based; conditions: for Metaphases chromosome aberrations, #: 1000 analysed metaphases
Protocol: On peripheral blood of human volunteers in vitro. Cell cultures were incubated and treated.

Acute toxicity studies = format: in vivo, mice, guinea pigs, chickens, and dogs
Excerpt: L-Glu-L-Trp, when injected im at dosages calculated to be about 10,000-times the therapeutic dosage, was non toxic in mice, guinea pigs, chickens, and dogs as determined by monitoring general condition, behavior, movements, cardiac and respiratory physiology, and gross pathology.

[2] = Chronic toxicity studies, daily im or iv for 30 days; format: in vivo; conditions: daily single im or iv
Protocol: Kidney function was determined by evaluation of diuresis after water-loading; for certain other experiments animals were sacrificed and examined after 10, 20, 30, and 60 days.

[3] = Pleuritis / suppurative lung diseases, combined antibiotic therapy (Protocol K); parameters: species or system human; conditions: in vivo
Protocol: Efficacy of L-Glu-L-Trp in combined antibiotic therapy was evaluated in twelve male patients (aged 18 to 45) with suppurative lung diseases that were poorly responsive to antibiotic therapy and accompanied by diffuse pleuritis, disseminated intravascular coagulation (DIC), pleural effusions, and fever. […] L-Glu-L-Trp was administered to these patients as a treatment of nearly last resort, and as part of the ongoing (unsuccessful) regimen of broad spectrum antibiotic therapy: i.e., 200 μg of L-Glu-L-Trp was administered im daily over a period of 5-7 days. […] In addition, T-cell counts in peripheral blood increased and IgG, IgM, and IgA increased (TABLE 17) and C-reactive protein levels fell (TABLE 16).

[4] = Ophthalmic diseases, parabulbar or conjunctival instillation; parameters: species or system human; conditions: in vivo
Protocol: Forty one patients (41; 17 men and 24 women; ranging in age from 17 to 68 years) with various eye diseases of infectious and non-infectious origin were treated with L-Glu-L-Trp. Patients having the following infectious, and non-infectious, ophthalmic diseases were entered into the trial: a) nonviral conjunctivitis, keratitis, chronic uveitis, persistent sties, and, focal chorioretinitis; and, b) retinal pigment dystrophy, Grenblad-Stranberg syndrome, and maculophathy, respectively. Five patients were Class II invalids due to vision impairment, 4 were Class III, and 32 were impaired but not invalid. […] L-Glu-L-Trp was administered daily in a single 0.1 mL (10 μg) dose by the parabulbar route (Group 1; n=21), or alternatively one drop of the dipeptide solution (5 μg) was delivered into the conjunctival cavity twice daily on each of 5 consecutive days (Group 2; n=20). Thirty six patients undergoing conventional therapy served as a control group (Group 3; n=36). […]
Vision was assessed using standard measurements: i.e., field of vision, visual acuity, electrophysiological indices. […] Immune parameters in peripheral blood were also assessed. […]

T-lymphocyte function = test: Naval specialists with occupational immunologic impairments; parameters: species or system human; conditions: in vivo
Protocol: A clinical trial was conducted of 152 naval specialists (aged 20-40 years) with evidence of occupational immunologic impairments resulting from their exposure to radiation and occupational toxins in the Kosomolets nuclear submarine sinking off the coast of […]. L-Glu-L-Trp was evaluated for its possible effects on cellular and/or humoral immunity. Approximately 87% of the servicemen entered into the trial had moderate to severely impaired T-lymphocyte functional activity, (i.e., evidenced by decreased LMIR and blastogenesis with Con-A) and reduced neutrophil phagocytic activity (i.e., 30-40% of normal). Immune parameters were determined before and after a routine 21-24 day rest period, during a normal rest/recuperation and training rotation. Servicemen were divided into two groups, the first (control) group received no treatment, and the second (experimental) group of 88 servicemen received three consecutive daily intranasal doses of 100 mcg L-Glu-L-Trp.

Dengue virus = test: Hemorrhagic Dengue Fever Protocol A; parameters: species or system human; conditions: in vivo
Protocol: L-Glu-L-Trp was administered to 21 patients with hemorrhagic Dengue Fever, and 28 patients receiving conventional therapy served as controls. L-Glu-L-Trp was administered im single daily doses of 100 μg on each of 5 consecutive days as an adjunct to ongoing conventional therapy. […] The investigators also observed that L-Glu-L-Trp treated patients experienced a reduction in muscle and bone pain. Immunological indices in peripheral blood were also normalized.
Forty nine patients (20-30 years of age; Kinh nationality) with diagnosed Dengue Fever were entered into the trial. The patients were referred to the 175th Military Hospital in Ho Chi Minh City at the time of an epidemic of Dengue fever in the South […] Republic of Vietnam. Diagnosis was based on the criteria recommended by the World Health Organization (1986) using medical histories, and clinical and laboratory data. […] Leukocytes during peak episodes of disease were recorded to be 4.60±0.17×10^9/L, and the absolute number of lymphocytes varied widely from 0.95 to 4.29×10^9/L.
Group 1 received conventional maintenance therapy consisting of detoxifying preparations and methods, e.g., fluids, fever control agents and the like. […] The efficacy of the respective treatment protocols was evaluated by recording the most frequently used clinical indicia of Dengue disease activity: namely, the clinical indicia recorded in TABLE 45.

[5] = Chronic liver disease: jaundice and systemic toxicity; format: in vivo, human; conditions: 2 with autoantibodies, 2 cryptogenic cirrhosis
[6] = Solubility of the purified dipeptide; format: physicochemical
Excerpt: Conveniently, the subject R′-Glu-Trp-R″ dipeptide is synthesized by any of a number of automated techniques that are now commonly available. Generally speaking, these techniques involve stepwise synthesis by successive additions of amino acids to produce progressively larger molecules. The amino acids are linked together by condensation between the carboxyl group of one amino acid and the amino group of another amino acid to form a peptide bond. To control these reactions, it is necessary to block the amino group of one amino acid and the carboxyl group of the other. The blocking groups should be selected for easy removal without adversely affecting the peptides, i.e., by racemization or by hydrolysis of the formed peptide bonds. Amino acids with carboxyl- groups (e.g., Asp, Glu) or hydroxyl- groups (e.g., Ser, homoserine, and Tyr) also require blocking prior to condensation. A wide variety of procedures exist for synthesis of peptides, solid-phase synthesis usually being preferred. In this procedure an amino acid is bound to a resin particle, and the peptide generated in a stepwise manner by successive additions of protected amino acids to the growing chain. Modifications of the technique described by Merrifield are commonly used (Merrifield, R. B., J. Am. Chem. Soc., 96: 2989-2993, 1964)). […]

[7] = Pharmacokinetic studies: labeled L-Glu-L-Trp by intranasal instillation; format: in vivo, experimental animals
Protocol: L-Glu-L-Trp treatment was administered by two different routes: namely, im (Group 1A) and intranasally (Group 1B). Group 1 A consisted of 17 patients (ie., 17 of the 36 patients in Group 1) who were treated with L-Glu-L-Trp by intramuscular injection of 100 μg daily for 5 days. Group 1B, the remaining 19 patients in Group 1, received L-Glu-L-Trp by intranasal instillation, daily for 5 days, of 1 mL of a 0.01% solution.

[8] = Clinical tests, summary across the illustrative Examples; conditions: in vivo
[9] = tested on: human and guinea pig lymphocytes; test: Toxicity to lymphocytes in vitro; format: cell-based
[10] = im injections

L-Glu-L-Trp
Mutagenic effect in vitro ([1]; 1 μg/mL and 100 μg/mL, 24 hrs): non-mutagenic in vitro; also recorded: statistically no mutagenic effect | Level of mutagenic effect (numbers) ([1]; 1 μg/ml): 0 | Metaphases chromosome aberrations, % ([1]; 1 μg/ml): 1.5% | Metaphases chromosome aberrations, # ([1]; 1 μg/ml): 15 | Level of mutagenic effect (numbers) ([1]; 100 μg/ml): 0 | Metaphases chromosome aberrations, % ([1]; 100 μg/ml): 1.6% | Metaphases chromosome aberrations, # ([1]; 100 μg/ml): 16 | Toxicity when injected intraperitoneally (Acute toxicity studies; guinea pigs and mice): non-toxic | Acute toxicity (Acute toxicity studies; im, about 10,000-times the therapeutic dosage): non toxic | Chronic toxicity [2]: without adverse effects | Allergic or adverse effects [3]: No allergic or adverse effects | Unfavorable response [4]: No unfavorable response to therapy was observed | Side-effects (T-lymphocyte function): no observed side-effects or indications of any intolerance | Side effects (Dengue virus): No side effects or allergic effects were observed | Patients in whom illness was aggravated [5]: 4 | Solubility [6]: soluble in water, DMF; also recorded: insoluble in chloroform and ether | Appearance of label in peripheral blood [7]: rapid, i.e., minutes, appearance of label in peripheral blood | Adverse effects in human preclinical trials [8]: without adverse effects | Toxicity to lymphocytes in vitro [9]: non-toxic | Patients with short-lived aggravation of the dermal diseases (Staphylococci; Stage 1, after second day): 20 of the 36 | Side effects or allergic reactions (Staphylococci; in vivo): No side effects or allergic reactions were observed | Side effect or allergic reaction [10]: did not induce any visible side effect or allergic reaction
